Earlier results as cited in article PMC2897767, “Two Distinct Mechanisms for Actin Capping Protein Regulation—Steric and Allosteric Inhibition” (PLoS Biology, 2010).

Molecular target: CP
Details: previously reported value; cited from earlier work
Description: We tested the importance of the C-terminal flanking regions of the CP-binding motif using a binding assay (Table 2; the constructs used for the measurement are shown in Figure 9B). […] GST-CD47, containing CD Phe505, bound to CP with a KD of 1 ... || Fujiwara, et al. reported that the mCAH3 fragment (mouse CARMIL residues 965-1038) tightly binds to CP (KD ~ 1 nM) whereas GST-CA76 (residues 962-1037) in the present study interacts weakly with CP (Table 2). In the second CP binding site in the CP/CBR115 complex, human CARMIL Val1034 (corresponding to mouse CA1038), which is missing in GST-76, forms multiple interactions with CP α-subunit residues. Thus, the absence of this key valine in GST-CA76 results in the lower CP binding affinity compared with the full active CARMIL fragments.

Substance: GST-CD2AP fragment: GST-CD2AP fragment containing residues 474–513, literature value (VVNFDDIASSENLLHLTANRPKMPGRRLPGRFNGGHSPTH; GST fusion; UniProt Q9Y5K6 474-513, looked up, fragment) [reference compound]
- Kd: 5.6 nM
